Legend:
β2-AR = β2-AR (Homo sapiens (Human), UniProt P07550); settings: read-out: Ki β2
1321N1 cells = test: Inhibition of mitogenesis, [3H]-thymidine incorporation in 1321N1 cells; assay type: cell-based, human; settings: read-out: Mitogenesis Inhibition IC50, mean ± SD, n=4

SMILES	Ki (β2-AR)	IC50 (1321N1 cells)
O=C(O)/C=C/C(=O)O.Oc1cc(O)cc([C@@H](O)CNCCc2ccccc2)c1 [(R)-7, (R)-(−)-5-(1-Hydroxy-2-phenethylaminoethyl)-1,3-benzenediol fumarate]	10.5 ± 1.46 µM	
CC(C)NC[C@H](O)c1ccc(O)c(O)c1 [(R)-isoproterenol, reference compound]		50 pM
O=C(O)/C=C/C(=O)O.Oc1cc(O)cc([C@H](O)CNCCc2ccccc2)c1 [(S)-7, (S)-(−)-5-(1-hydroxy-2-phenethylaminoethyl)-1,3-benzenediol fumarate]	20.6 ± 3.72 µM	

— patent publication US9492405B2 (dated 2016)
